Data on three compounds can be found in publication PMC9176637.

Amino acid sequences for entries named in this document (tags omitted). Residues count along the entry.
UniProt P09211, 2-210 limits assumed: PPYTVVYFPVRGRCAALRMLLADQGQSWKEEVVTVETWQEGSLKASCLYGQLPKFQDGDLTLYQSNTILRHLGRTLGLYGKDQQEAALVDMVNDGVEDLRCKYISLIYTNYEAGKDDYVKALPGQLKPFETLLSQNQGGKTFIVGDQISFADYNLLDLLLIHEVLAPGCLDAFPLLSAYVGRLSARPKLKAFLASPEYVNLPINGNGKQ

For one test, the target named is GST P1-1 (Homo sapiens, UniProt P09211). The experiment in a line: GST P1-1 inhibition, sequential injection analysis (SIA) method, GSH/CDNB, absorbance 340 nm. The note with it: read-out: IC50 (µM ± SD), GST P1-1 inhibition, 37 °C, pH 6.5, 1.8 mM CDNB, 4 min stop, triplicate.
The subject of test [1] is ovarian cancer cell lines (A2780, A2780cisR). The settings on record: cited from earlier work.

As a reminder, the IC50 is the point on the concentration scale where inhibition reaches its midpoint.

As for `C=C(CC)C(=O)c1ccc(OCC(=O)Oc2ccc(P(c3ccccc3)c3ccccc3)cc2)c(Cl)c1Cl`, the IC50 on GST P1-1 was determined as 181 µM. Take `C=C(CC)C(=O)c1ccc(OCC(=O)Oc2ccccc2P(c2ccccc2)c2ccccc2)c(Cl)c1Cl`: the IC50 at GST P1-1 came out at 152 µM. Turning to `C=C(CC)C(=O)c1ccc(OCC(=O)OCCOC(=O)c2ccc(P(c3ccccc3)c3ccccc3)cc2)c(Cl)c1Cl`, in test [1], the “GST inhibitory activity in ovarian cancer cell lines” value is “modest GST inhibitory activity”. On GST P1-1, the IC50 came out at 138 µM.
